According to patent US9452997B2, “Piperidine and piperazine derivatives as autotaxin inhibitors” (Merck Patent GmbH, priority 2009, dated 2016):

Target: Recombinant autotaxin (Homo sapiens, UniProt Q13822)
Assay: Autotaxin assay (Amplex Red, LPC substrate)
Conditions: read-out: IC50 value, Amplex Red detection, values given as upper bounds
Procedure: Autotaxin activity is measured indirectly by means of Amplex Red Reagent. In this course, Amplex Red is measured as fluorogenic indicator for generated H2O2. Autotaxin converts substrate lysophosphatidylcholine (LPC) to phosphocholine and lysophosphatidylic acid (LPA). After the conversion phosphocholine is reacted with alkaline phosphatase to obtain inorganic phosphate and choline. During the next step choline is oxidized with choline oxidase to yield betaine, whereby H2O2 is generated. H2O2 reacts with Amplex Red Reagent in the presence of peroxidase (Horseradish peroxidase) in an 1:1 stochiometry and yields highly fluorescent resorufin. The generated fluorescence is measured in a reaction-dependent kinetic mode in order to enable subtraction of fluorescence signals of possible other fluorescent compounds that are not part of the reaction from total measured fluorescence. […]
Thereafter, the reaction is started through the addition of 5 μL-a-lysophosphatidyl-choline (LPC), whereby the final concentration of LPC is 75 μM. […] The fluorescence is immediately measured at a wavelength of 612 nm with an excitation wavelength of 485 nm in a “Tecan Ultra multimode” fluorescence reader. The activity of autotaxin is indirectly calculated via the amount of detected generated H2O2. […]
IC50 values were calculated on normalized data. […]

O=C(CCc1ccc([N+](=O)[O-])cc1)N1CCC(N2CCN(C(=O)c3ccc4[nH]nnc4c3)CC2)CC1
IC50: < 1 µM
